# Data as given in ChEMBL document CHEMBL1145905, “Design and synthesis of novel dimeric morphinan ligands for kappa and micro opioid receptors” (J Med Chem, 2003).
# Amino acid sequences for entries named in this document (tags omitted). A change or cut given only in a name is not applied to a line headed by its entry.
# UniProt P41143, whole entry, looked up: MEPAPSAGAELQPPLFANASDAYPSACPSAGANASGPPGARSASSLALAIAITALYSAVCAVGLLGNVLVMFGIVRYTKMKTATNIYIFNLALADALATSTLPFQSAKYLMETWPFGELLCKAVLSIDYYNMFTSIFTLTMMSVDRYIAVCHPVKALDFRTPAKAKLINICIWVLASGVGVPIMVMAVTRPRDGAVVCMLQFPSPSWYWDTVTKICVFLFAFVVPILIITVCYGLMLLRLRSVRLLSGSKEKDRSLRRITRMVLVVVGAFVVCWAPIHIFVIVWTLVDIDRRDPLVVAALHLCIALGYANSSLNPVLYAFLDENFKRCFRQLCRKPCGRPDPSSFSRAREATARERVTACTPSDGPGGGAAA
# UniProt P35372, whole entry, looked up: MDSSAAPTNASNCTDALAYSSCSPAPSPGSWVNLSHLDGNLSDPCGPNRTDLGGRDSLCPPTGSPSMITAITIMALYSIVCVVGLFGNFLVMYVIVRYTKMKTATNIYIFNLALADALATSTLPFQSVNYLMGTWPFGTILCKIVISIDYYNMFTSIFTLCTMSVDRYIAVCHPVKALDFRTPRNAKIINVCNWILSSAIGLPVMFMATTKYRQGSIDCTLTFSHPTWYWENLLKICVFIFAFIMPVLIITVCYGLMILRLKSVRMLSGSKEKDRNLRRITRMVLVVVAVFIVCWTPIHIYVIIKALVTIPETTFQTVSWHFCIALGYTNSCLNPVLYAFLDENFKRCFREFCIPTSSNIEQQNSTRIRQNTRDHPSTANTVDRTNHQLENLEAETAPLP
# UniProt P41145: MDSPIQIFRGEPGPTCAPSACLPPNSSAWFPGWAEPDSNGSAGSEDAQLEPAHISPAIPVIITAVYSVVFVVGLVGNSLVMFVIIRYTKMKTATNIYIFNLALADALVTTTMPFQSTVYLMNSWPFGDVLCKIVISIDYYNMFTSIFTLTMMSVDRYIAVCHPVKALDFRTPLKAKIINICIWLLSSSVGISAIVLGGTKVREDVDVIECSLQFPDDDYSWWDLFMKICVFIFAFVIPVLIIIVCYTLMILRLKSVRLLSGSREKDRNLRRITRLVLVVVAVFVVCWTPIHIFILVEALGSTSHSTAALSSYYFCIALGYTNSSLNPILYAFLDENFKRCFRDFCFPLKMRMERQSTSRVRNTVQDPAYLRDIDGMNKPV
# Assays:
# [1] = biological target: Delta-type opioid receptor (Homo sapiens, UniProt P41143); experiment: Inhibitory activity against Opioid receptor delta 1 in chinese Hamster Ovary (CHO) cell membranes was determined using [3H]naltrindole radioligand
# [2] = biological target: Mu-type opioid receptor (Homo sapiens, UniProt P35372); experiment: Inhibitory activity against Opioid receptor mu 1 in chinese Hamster Ovary (CHO) cells membranes was determined using [3H]-DAMGO radioligand
# [3] = biological target: Kappa-type opioid receptor (Homo sapiens, UniProt P41145); experiment: Inhibitory activity against Opioid receptor kappa 1 in chinese Hamster Ovary (CHO) cell membranes was determined using [3H]U-69593 radioligand
compound,measurement,setting,value
CN(C(=O)Cc1cccc2occc12)[C@H]1CC[C@@]2(CCCO2)C[C@@H]1N1CCCC1,Ki,[1],> 1 µM
same,Ki,[2],0.022 µM
same,Ki,[3],0.00027 µM
